US6713250B1, “Identification of human allergens and T-lymphocyte antigens in vitro” (The Research Foundation of State University of New York, priority 1997, dated 2004)

System: human naive T-cells (PBMC)
Experiment: Primary in vitro sensitization culture of PBMC with or without mitomycin C treated T2 cells, 3H-thymidine uptake
Format: cell-based
Procedure: Preparation of peripheral blood mononuclear cells (PBMC). The research protocol was approved by the Committee on Research Involving Human Subjects of SUNY @ Stony Brook. After informed consent, heparinized blood was obtained by venipuncture. PBMC (peripheral blood mononuclear cells, which include lymphocytes and macrophages/monocytes) were prepared from heparinized peripheral blood by density centrifugation over Ficoll/Hypaque (Pharmacia, Piscataway, N.J.). PBMC were then washed 3 times in serum free wash medium consisting of SMEM (Gibco, Grand Island, N.Y.), and mixed (1:1) with AIM V medium (Gibco). At no time did the PBMC contact animal serum. PBMC were counted, and resuspended at 2×10^6 cells/ml in AIM V medium (Gibco).
Preparation and mitomycin C treatment of T2 cells. T2 cells were cultured in AIM V media (Gibco). Prior to treatment, they were washed, counted, and resuspended in AIM V media at 2×10^6 cells/ml. Mitomycin C (Sigma, St Louis, Mo.) was then added at 30 μg/ml for a 2 hour incubation at 37° C. The T2 cells were then washed 4 times in serum free wash media, counted with trypan blue dye exclusion, and resuspended at 1×10^6 cells/ml.
In vitro sensitization cultures. […] The wells were harvested 18 hours later, and ^3H-thymidine uptake was determined with a scintillation counter (Pharmacia LKB Nuclear, Gaithersburg, Md.).

## COc1cc(C=O)ccc1O [vanillin]
PBMC from 4 donors, 6 days with mitomycin C treated T2 cells, each compound 3.3 μM to 60 μM
  donor PBMC that responded, FIG. 2: none
PBMC incubated 6 days with mitomycin C treated T2 cells
  response of PBMC, FIG. 4: negative response
